Measurements as given in patent US20040266882A1 (priority 2001, published 2004).

System: PANC-1, C6, MCF-7, U2OS and HT1080
Details: all cases: five cell lines, DOX and VIN

CNCCC(Oc1ccc(C(F)(F)F)cc1)c1ccccc1 (stereo not shown) [fluoxetine]
effect on cytotoxicity of the chemotherapeutic drug: potentiates the cytotoxic effect
